The record followed here is PubChem BioAssay AID595 (National Center for Advancing Translational Sciences (NCATS), 2007).

The entries are a selection whose mix differs from that of the whole data set. Results filed as inconclusive are left out. Calls of active or inactive are those of the source. Calls come from the whole dose curve; as a rule, active = well fitted curve in either direction with a large enough effect; inconclusive = small, poorly fitted or top-dose-only effect, or another doubt; inactive = flat fitted curve, though single readings scatter.
% is set by controls: 0 for no effect and ±100 for the full control effect.

The test system of this assay is Hsp90 C-terminal peptide / TPR2A (Hop) interaction, human. Kind of assay: qHTS Assay for Disrupters of an Hsp90 Co-Chaperone Interaction. The conditions noted are these: AlphaScreen TPR2A-His6 binding biotin-Hsp90 C-terminal peptide; at 57 µM (top of the series) unless noted. From the text:
NIH Chemical Genomics Center [NCGC]
NIH Molecular Libraries Screening Centers Network [MLSCN]
Hsp90 (heat shock protein 90) is the essential molecular chaperone and it accounts for 1-2% of all cytosolic proteins and is critical for the activity of diverse cellular proteins that are involved in a variety of cellular processes, including development, cell cycle, and steroid hormone signaling. Its client proteins include signaling kinases such as IGF1R, Akt, v-Src, Raf-1; regulators of cell survival such as Bcr-Abl; and transcription factors such as mutated p53, estrogen and progesterone receptors. Hsp90 has emerged as an important target for cancer treatment due to its essential role in maintaining transformation and regulating the function of oncogenic signaling proteins.
The in vivo function of Hsp90 is regulated by the binding and hydrolysis of ATP at its N-terminal. Geldanamycin binds to ATP site and inhibit Hsp90 function. Geldanamycin and its analogues are under clinical trials in cancer patients.
This domain contains the binding site for tetratricopeptide repeat (TPR) domains on HOP (Hsp Organizing Protein). TPR is a structural motif used by a significant number of cochaperones by which the in vivo function of Hsp90 is regulated. TPR2A on HOP binds specifically to MEEVD motif of the C-terminal of Hsp90.
A homogeneous AlphaScreen is developed to assess the interaction between TPR2A and MEEVD motif of the C-terminal of Hsp90 by using the isolated TPR2A domain and a synthesized 20mer Hsp90 C terminal peptide. AlphaScreen is two bead-based proximity-dependent chemical energy transfer luminescent assay platform. TPR2A-His-6 and biotinylated Hsp90 C terminal peptide will bring streptavidin donor beads and nickel chelate acceptor beads to a proximity range (less than 200 nm), and subsequently lead a chemical luminescent reaction upon exciting donor beads with 680 nm laser. Inhibition of TPR2A and MEEVD motif interaction by small molecules could attenuate or abolish this chemical luminescent reaction.
Counter screening: Biotinylated-His-6 (PerkinElmer) can be utilized as a counter screen, as it serves as a linker to bring streptavidin beads and nickel chelate beads together. The counter screen can exclude alpha screen platform false positives due to small molecules being metal chelators, biotin analogues and imidazole analogues, or due to interfering with oxygen release from donor beads. Such an assay should be utilized to qualify any activity observed in this screen.
NCGC Assay Protocol Summary:
The assay was performed on 1536-well white plate (untreated solid bottom). Liquids were dispensed by 1536-well plate washer (Kalypsys, San Diego, CA). Plates were read on EnVision (PerkinElmer, Boston, MA).TPR2A-His6 was produced using a bacteria expression system and purified using a well developed method (Ghosh et al., 2000). Hsp90 C terminal 20-mer peptide with or without an N-terminal biotin group are synthesized using automated solid phase synthesis by the Yale Keck facility. The composition of assay buffer was (in mM) 25 HEPES, 100 KCl, 2 MgCl2 and 2 DTT; 0.1% BSA and 0.01% Tween-20. TPR2A-His6 binding to biotin-Hsp90 will bring streptavidin donor beads and nickel chelate acceptor beads (PerkinElmer) together and can be measured by Alpha reading by EnVision (PerkinElmer). Free Hsp90 blocks biotin-Hsp90 binding to TPR2 and serves as a positive control in the current asssay.
The assay was performed at room temperature. All compounds were screened as titrations from […] to 46 uM final concentration. The assay was performed in 1536-well format plates (untreated white solid bottom, Corning Inc.) as follows:
Sequence,Parameter,Value,Description
1,Reagent,3 uL TPR2A-His6,Final concentration was 5nM
2,Compound,23 nL,Final titration was from 0.7 nM to 46 uM
3,Time,15 minutes,Room temperature
4,Reagent,1 uL biotin-Hsp90,With and without free Hsp90. Final concentration was 10 nM for biotin-Hsp90 and 10uM for free Hsp90.
5,Time,1 hour,Room temperature
[…]
In general terms: In qHTS, concentration-response curves come from the screen itself.
As for `N/C(=N\O)c1c(N)no[n+]1[O-]`, the activity change, negative = inhibition was inactive: -0.814%. The same measure for `ClCCOP(OCCCl)OCCCl`: inactive: -1.21%; for `Fc1ccccc1NC1CCN(Cc2ccccc2)CC1`: inactive: -1.23%; for `CCC(CO)(C(=O)OC1CN2CCC1CC2)c1ccccc1` (stereo not given): inactive: -4.01%. The same measure for `O=C(O)C1(Nc2ccccc2)CCN(Cc2ccccc2)CC1`: inactive: -3.98% [at 11 µM]; for `CCOc1ncccc1C(=O)NCC1(N2CCOCC2)CCCCC1`: inactive: -0.805%; for `O=C(OC1CN2CCC1CC2)C1c2ccccc2Oc2ccccc21` (stereo not given): inactive: 1.74%. With `N#CC1(Nc2ccccc2)CCN(CCc2ccccc2)CC1` the figure was inactive: 2.79%; with `NC1CCCCC1.NP(=O)(O)N(CCCl)CCCl`, inactive: -0.842% [at 11 µM]. As to `CCOP(=O)(Cl)Cl`, the activity change, negative = inhibition is inactive: -2.59%.
